NALP1 yeast inh: NALP1 inhibition. S. cerevisiae NALP1/ASC/caspase-1 growth, X-gal OD620, 72 h. inhibition, % at 10 µM. hit rate 0.61% among 280,000; in the data active = inhibition mostly above about 24%, no sharp cut-off; inactive = mostly below about 32%
MC4R antagonist: blocks human MC4R cAMP signaling | hit rate 0.48% among 360,000 | AID 540295 | MC4R-expressing cells, MTII-stimulated cAMP, LANCE TR-FRET | P32245 | inhibition, % at 6.5 µM;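 active = inhibition above its plate's cutoff, the mean of tested wells on that plate plus 3 SD, cut at about 29% in these data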;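 note: 0% = Melanotan II alone and 100% = Melanotan II plus saturating MCL0020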
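system = U2OS cells with stable human MC4R expression | also added = Melanotan II challenge after compound preincubation | dosing = one concentration, 6.5 µM nominal | incubation = compound 30 min, challenge 1 h, detection 1 h | measured by = TR-FRET with Eu-cAMP and labeled anti-cAMP, 671 nm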
HDAC3 inh: inhibitors of human histone deacetylase 3. O15379. recombinant HDAC3, fluorogenic peptide/trypsin coupled, fluorescence. inhibition, % at 8.3 µM. hit rate 0.15% among 320,000; in the data active = inhibition above about 26%, passing the limit was not always enough; inconclusive = no clear call, values can overlap the other calls
Yeast UUG start: yeast start codon fidelity modulation; activity score, % at 18.7 µM; actives 0.13% (n = 350,000); S. cerevisiae UUG-firefly luciferase reporter, luminescence/redox ratio; AID 602363;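 active means replicate mean at a twofold rise or more, about +100% in these data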;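 further: firefly luciferase made from a UUG start codon reports start codon fidelity; reporter light over untreated wells divided by growth signal over untreated wells; some hits fall short of that in this replicate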
ALR H2O2 inh: blocks human ALR sulfhydryl oxidase activity; inhibition, % (no concentration beside the values); hit rate 3.8% among 290,000; purified ALR, DTT oxidation, H2O2 HRP-luminol luminescence; AID 485317; P55789;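 active = mean and each replicate at 75% or more; inconclusive = only one of the two met; inactive = neither met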;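 note: stock transfer was 7.5 nL into about 7.5 µL; 0% = neutral wells and 100% = wells with inactivated enzyme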
MC4R barr agon: activates human MC4R beta-arrestin recruitment | hit rate 0.98% among 360,000 | P32245 | U2OS MC4R beta-arrestin complementation, luminescence; percent of melanotan II response, DMSO zero | AID 540308 | activation, % at 8.9 µM;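 active = activation above a per-plate cutoff, the mean activation of sample wells on that plate plus 3 SD, cut at about 8% in these data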
* = called active by the depositor; ? = inconclusive; . = no result given. Compounds with a hit are over-represented: about 4.2% of the library has one in this group of screens.

| NALP1 yeast inh | MC4R antagonist | HDAC3 inh | Yeast UUG start | ALR H2O2 inh | MC4R barr agon | molecule |
| --- | --- | --- | --- | --- | --- | --- |
| 4 | 10 | 72* | . | 98* | -2 | O=C(CSC1=NCCS1)c1ccc(Cl)cc1 |
| . | . | . | 12 | . | . | O=C(C[C@H]1CC[C@H]2[C@@H](COC[C@H](O)CN2Cc2ccc(F)cc2)O1)N1CCc2ccccc2C1 |
| 0 | 6 | 81* | -17 | 5 | -1 | COc1ccc(C(=O)n2cnnc2N)cc1 |
| -23 | -6 | 44* | . | 10 | 0 | Cc1cccc(C(=O)n2cnnc2N)c1 |
| . | 0 | . | . | . | 1 | CCOc1ccc(C(=O)n2cnnc2N)cc1 |
| 25 | 5 | 4 | -1 | . | 0 | Cc1ccc(OCCC(=O)Nc2ccc(F)c(F)c2)cc1 |
| 27 | -1 | 4 | . | 62 | 8.9* | Cc1cccc(OCCC(=O)Nc2ccc(F)c(Cl)c2)c1 |
| -6 | 5 | 3 | -9 | 98* | 0 | COc1cccc(C2Nc3ccccc3NC3=C2C(=O)CC(C)(C)C3)c1 (stereo not given) |
| . | 8 | 3 | . | 98* | -2 | CC1(C)CC(=O)C2=C(C1)Nc1ccccc1NC2c1ccc([N+](=O)[O-])cc1 (stereo not given) |
| 16 | 6 | 11 | -1 | 99* | 1 | CC1(C)CC(=O)C2=C(C1)Nc1ccccc1NC2c1ccc(F)c(F)c1 (stereo not given) |
| -3 | -7 | -4 | -21 | 68 | 0 | Cc1c(C2Nc3ccccc3NC3=C2C(=O)CC(C)(C)C3)cnn1C (stereo not given) |
| 7 | 4 | 2 | -12 | 98* | -1 | CC1(C)CC(=O)C2=C(C1)Nc1ccccc1NC2c1ccccc1F (stereo not given) |
| 19 | 7 | 3 | . | . | -2 | CC1(C)CC(=O)C2=C(C1)NC(=O)NC2c1ccc([N+](=O)[O-])cc1 (stereo not given) |
| 3 | 7 | ? | -7 | 59 | -2 | COc1cc(C2Nc3ccccc3NC3=C2C(=O)CC(C)(C)C3)cc(OC)c1OC(C)=O (stereo not given) |
| . | . | . | -7 | . | . | COCC#Cc1cnc2c(c1)C(=O)N([C@@H](C)CO)C[C@@H](C)[C@@H](CN(C)C)O2 |
| . | . | . | -8 | . | . | COc1cc2c(cc1OC)CN(C(=O)[C@H]1[C@@H]3C(=O)O[C@@H](c4ccccc4)[C@@H](c4ccccc4)N3[C@@H](c3ccccc3OCCO)[C@]13C(=O)Nc1ccc(C#CC4=CCCCC4)cc13)CC2 |
| 3 | -2 | 2 | . | 99* | 0 | CC1(C)CC(=O)C2=C(C1)Nc1ccccc1NC2c1cccs1 (stereo not given) |
| 23 | 3 | 1 | . | . | 1 | O=C1CCCC2=C1C(c1cccs1)Nc1ccccc1N2 (stereo not given) |
| . | . | . | 54 | . | . | O=C(C[C@H]1C[C@@H]2c3cc(NC(=O)Nc4ccccc4)ccc3O[C@@H]2[C@@H](CO)O1)NC1CCCCC1 |
| -13 | -3 | 40* | -1 | 52 | 0 | COc1ccc(N2CSC3=C(C#N)C(c4ccc(OC)c(OC)c4)CC(=O)N3C2)c(OC)c1 (stereo not given) |
| 1 | 4 | -6 | -13 | -36 | -1 | COc1cc(OC)c(C2CC(=O)N3CN(c4ccc(C)cc4)CSC3=C2C#N)cc1OC (stereo not given) |
| -18 | 5 | 31* | -16 | 15 | 0 | CCOC(=O)c1ccc(N2CSC3=C(C#N)C(c4cccs4)CC(=O)N3C2)cc1 (stereo not given) |
| 5 | -1 | 42* | -10 | 2 | 0 | COc1ccc(N2CSC3=C(C#N)C(c4cc(OC)ccc4OC)CC(=O)N3C2)c(OC)c1 (stereo not given) |
| 0 | -8 | 38* | -2 | -44 | -1 | COc1ccc(N2CSC3=C(C#N)C(c4cc(OC)c(OC)cc4OC)CC(=O)N3C2)c(OC)c1 (stereo not given) |
| . | . | . | 4 | . | . | COc1ccc(NC(=O)Nc2ccc3c(c2)[C@@H]2C[C@@H](CC(=O)NCc4ccc5c(c4)OCO5)O[C@H](CO)[C@@H]2O3)cc1 |
| . | . | . | 2 | . | . | COc1ccc(CN2C[C@@H](C)[C@H](OC)CN(C)C(=O)c3cc(NC(=O)c4nc5ccccc5s4)ccc3OC[C@H]2C)cc1 |
| 17 | 1 | 5 | -15 | 4 | -1 | N#CC1=C2SCN(c3ccc(F)cc3)CN2C(=O)CC1c1cccc(F)c1 (stereo not given) |
| 19 | 10 | 43* | -27 | -8 | 1 | COc1ccc(C2CC(=O)N3CN(c4ccc(C)c(Cl)c4)CSC3=C2C#N)cc1OC (stereo not given) |
| 8 | 21 | 2 | . | 94* | 0 | CC1=C(C)CC2(SC1)C(=O)N(c1ccccc1)N=C2N (stereo not given) |
| 15 | 5 | -8 | -20 | 99* | -1 | CC(C)CN(CC(C)C)c1nnc(N)s1 |
| 10 | -5 | 7 | -19 | -6 | -2 | CC(C)CSc1nnc(N)s1 |
| 5 | -11 | ? | . | 22 | 1 | Oc1ccc(/C=N/Nc2ccc(C(F)(F)F)cn2)c(O)c1 |
| -80 | 0 | 3 | . | 97* | 0 | Oc1ccc(/C=N/Nc2ccc(C(F)(F)F)cn2)cc1 |
| -2 | 15 | 9 | . | 99* | -3 | Nc1ccc2nc[nH]c2c1 |
| . | . | . | 25 | . | . | COc1ccc(NC(=O)Nc2ccc3c(c2)C(=O)N([C@@H](C)CO)C[C@H](C)[C@H](CN(C)C(=O)Nc2ccc(OC)cc2)O3)cc1 |
| 41* | 0 | -2 | -20 | -9 | -2 | O=C(CNC(=O)c1ccccc1F)OC(C(=O)Nc1cc(C(F)(F)F)ccc1Cl)c1ccccc1 (stereo not given) |

Taken from the results shown for reference:
| NALP1 yeast inh | MC4R antagonist | HDAC3 inh | Yeast UUG start | ALR H2O2 inh | MC4R barr agon | molecule |
| --- | --- | --- | --- | --- | --- | --- |
| -2 | 15 | 9 | . | 99* | -3 | Nc1ccc2nc[nH]c2c1 |
| . | . | . | 25 | . | . | COc1ccc(NC(=O)Nc2ccc3c(c2)C(=O)N([C@@H](C)CO)C[C@H](C)[C@H](CN(C)C(=O)Nc2ccc(OC)cc2)O3)cc1 |
| 41* | 0 | -2 | -20 | -9 | -2 | O=C(CNC(=O)c1ccccc1F)OC(C(=O)Nc1cc(C(F)(F)F)ccc1Cl)c1ccccc1 (stereo not given) |

Additional structures follow.
| NALP1 yeast inh | MC4R antagonist | HDAC3 inh | Yeast UUG start | ALR H2O2 inh | MC4R barr agon | molecule |
| --- | --- | --- | --- | --- | --- | --- |
| . | 9 | 21 | -16 | 3 | 1 | N#CCC(=O)Nc1ccc(C(=O)OC(C(=O)Nc2cc(C(F)(F)F)ccc2Cl)c2ccccc2)cc1 (stereo not given) |
| 35* | 5 | 3 | -15 | -6 | 1 | C[C@H](NC(=O)c1ccccc1Cl)C(=O)OC(C(=O)Nc1cc(C(F)(F)F)ccc1Cl)c1ccccc1 (stereo not given in full) |
| . | . | . | -7 | . | . | CO[C@@H]1CN(C)C(=O)c2cc(NS(=O)(=O)c3ccccc3)ccc2OC[C@H](C)NC[C@H]1C |
| . | . | . | -13 | . | . | O=C(C[C@H]1C=C[C@H](NC(=O)Nc2ccc3c(c2)OCO3)[C@@H](CO)O1)NCc1ccc(F)cc1 |
| 2 | 2 | 7 | 9 | 85* | -1 | O=C1OC(c2ccccc2)=C/C1=C/N1CCCCC1 |
| 31 | 3 | -3 | 2 | 98* | -2 | CCc1c(C(=O)NCc2cnn(C)c2)csc1C |
| 16 | -1 | 3 | -9 | -7 | -1 | CC(N)=Nc1ccc([N+](=O)[O-])cc1 |
| 99* | 4 | -1 | -24 | 57 | -2 | O=[N+]([O-])c1ccc(N=Nc2c(Cl)cc(O)cc2Cl)cc1 |
| . | 9 | -1 | 4 | 100* | -2 | Cc1sc2nc(CSC(C)C(=O)Nc3ccc(C(N)=O)cc3)[nH]c(=O)c2c1C (stereo not given) |

Arranged by the number under NALP1 yeast inh (smallest number first): 3 from the list above.
| NALP1 yeast inh | MC4R antagonist | HDAC3 inh | Yeast UUG start | ALR H2O2 inh | MC4R barr agon | molecule |
| --- | --- | --- | --- | --- | --- | --- |
| -80 | 0 | 3 | . | 97* | 0 | Oc1ccc(/C=N/Nc2ccc(C(F)(F)F)cn2)cc1 |
| -23 | -6 | 44* | . | 10 | 0 | Cc1cccc(C(=O)n2cnnc2N)c1 |
| 0 | 6 | 81* | -17 | 5 | -1 | COc1ccc(C(=O)n2cnnc2N)cc1 |

Screening results from PubChem.
